Laboratory results reported in patent US20260271928A1, “CONTROL OF PESTS RESISTANT TO INSECTICIDES” (Syngenta Crop Protection Ag, priority 2023, published 2026).

What was measured:
[1] = tested on: Resistant Plutella xylostella; test: Resistant Plutella xylostella (rPLU); format: in vivo; conditions: collected 2013, Changhua, Taiwan
Experimental: Chinese cabbage plants were treated with the diluted test solutions in a spray chamber. After drying, the leaves were cut off and placed in petri dishes with wetted filter paper. One day after treatment, the leaves were infested with 10 Plutella xylostella larvae (L3). Samples were assessed 4 days after infestation for mortality and growth regulation.
Resistant Plutella xylostella (rPLU)
A number of target-sites mutations were identified in this strain which confer resistance to pyrethroids (L1014F, T929I), organophosphates and carbamates (mAChE: A298S and G324A), and organochlorines (rdl: A298S), and diamides (ryr: G4546E).

[2] = tested on: Resistant Nilaparvata lugens; test: Resistant Nilaparvata lugens (rNIL); format: in vivo; conditions: collected 2005, Karnataka, India
Experimental: Rice plants were treated with the diluted test solutions in a spray chamber. After drying, plants were infested with ~20 Nilaparvata lugens nymphs (N5). 7 days after the treatment samples were assessed for mortality. The adults were then removed and 15 days after the treatment samples were assessed for effect on F1 generation.
Resistant Nilaparvata lugens (rNIL)
Originally collected from Hosa-Hally, Karnataka district, India in 2005.

Structure (SMILES)	resistance of the rPLU strain to the insecticide [1] [fold]	resistance of the rNIL strain to the insecticide [2] [fold]
CNC(=O)c1cc(Cl)cc(C)c1NC(=O)c1cc(Br)nn1-c1ncccc1Cl [Chlorantraniliprole]	1500	
CNC(=O)c1cc(C#N)cc(C)c1NC(=O)c1cc(Br)nn1-c1ncccc1Cl [Cyantraniliprole]	300	
CN/C(=N/CC1CCOC1)N[N+](=O)[O-] (centres unmarked) [Dinotofuran]		30
N#Cc1nn(-c2c(Cl)cc(C(F)(F)F)cc2Cl)c(N)c1[S+]([O-])C(F)(F)F (centres unmarked) [Fipronil]	300	
O=[N+]([O-])NC1=NCCN1Cc1ccc(Cl)nc1 [Imidacloprid]		5000
